Data as given in patent publication US20140243411A1, “TOPICAL DTPA PRODRUG FORMULATIONS AND METHODS OF USING THE SAME” (priority 2011, published 2014).

What was measured:
[1] = Crawley and Haines; cited from earlier work
[2] = 250 g rat; calculated from literature half-life and volume of distribution

trisodium diethylenetriamine pentaacetic acid [DTPA]
half-life of DTPA in extracellular fluid [1]: 18.5 min | clearance of DTPA [2]: 0.02 L/h
